In US9364496B2, “Custirsen treatment with reduced toxicity” (ONCOGENEX TECHNOLOGIES INC., priority 2013, dated 2016):
Several values for one entry are separate records, joined by “and”; a condition that tells them apart may be missing. Equal entries are not always repeated.

What was measured:
[1] = test system: RPMI 8226 (human myeloma) xenograft; assay: In vivo activity of custirsen (TV-1011), different doses and regimens with Bortezomib, RPMI 8226 xenograft (Example 15); details: for Day 21 volume / Day 28 volume / Day 33 volume / Day 41 volume: Velcade 0.5 mg/kg biwk; for volume / Δ volume: group 2: Velcade 0.5 mg/kg biwk; for Δ volume: Day 62 vs baseline
Experimental: 120 CB.17 SCID female mice, 4-6 weeks old, 16-20 grams, obtained from Harlan animal breeding center.
Cells (originated from ATCC) were cultured on RPMI medium. Cell suspension was centrifuged and resuspended in 50% Matrigel/HBSS to a final concentration of 7×10^7 cells/ml. The suspension was implanted s.c. in the right flank of the anesthetized mouse at a volume of 100 μl.
Seven ml saline were added to the original vial containing 3.5 mg powder resulting in 0.5 mg/ml. Three ml of this solution were added to 27 ml saline to receive 0.05 mg/ml concentration. […] 28.5 ml of 4 mg/ml were added to 9.5 saline to receive 3 mg/ml.
Mice were implanted subcutaneously, with 7×10^6 RPMI 8226 cells/mouse (in 50% Martigel/HBSS) on Day 0. On day 21, mice were sorted by the optimal average tumor volume (˜130 mm3) and were allocated into eight groups of 10 mice each.
The treatment started on day 21 post implant, 0.2 ml per 20 grams v/w.
[formula] The analysis of weight gain and tumor volume progression was made using one-way ANOVA followed by Tukey post-hoc comparisons.

[2] = test system: RPMI 8226 (human myeloma) xenograft; assay: In vivo activity of custirsen with Velcade, RPMI 8226 xenograft (Example 14); details: Velcade 0.5 mg/kg iv biwk
Experimental: The cells were implanted subcutaneously into female SCID mice with 7×10^6 cells inoculum.
Tumors and body weights were measured weekly until termination of the study on day 71. Response to treatment was evaluated for tumor growth inhibition (TGI) and tumor growth delay (TGD).
70 CB.17 SCID female mice, 4-6 weeks old, 16-20 grams, obtained from Harlan animal breeding center.
Sample from the cell suspension was taken for counting (0.3 ml in duplicates for CEDEX) before spun down. Cell viability was 85.6% and live cell concentration was 167×10^5 cells/ml. The pellet was resuspended in HBSS to a final volume of 8 ml.
Tumors were implanted subcutaneously with RPMI-8226 cells into the right flank of the mouse on Day 0. Each animal received a s.c. injection 7×10^6 cells in 0.1 ml suspension. On day 20, mice were sorted by the optimal tumor volume ([…]) and were allocated into 5 groups of 10 mice. Mice were individually tagged and their tumor volume and body weight were monitored weekly during the study. Tumor size was measured by caliper and calculated using the formula: […]
The treatment started on […] (0.2 ml per 20 grams v/w) and continued till day 52, after which the remaining mice were left for observation until day 71.

[3] = Velcade 0.5 mg/kg iv biwk, day 62

## CC(C)C[C@H](NC(=O)[C@H](Cc1ccccc1)NC(=O)c1cnccn1)B(O)O [Velcade®, Bortezomib, reference compound]
[1]; group Mean
  Day 21 volume: 129.3
  Day 28 volume: 178.9
  Day 33 volume: 187.6
  Day 41 volume: 243.6
[1]; individual mice
  Day 21 volume: 100 and 106 and 117 and 119 and 124 and 129 and 133 and 142 and 154 and 166
  Day 28 volume: 127 and 162 and 223 and 192 and 155 and 152 and 172 and 141 and 243 and 222
  Day 33 volume: 152 (2×) and 175 and 216 and 189 and 187 (2×) and 227 and 165 and 225
  Day 41 volume: 120 and 188 and 288 and 244 and 225 and 299 and 191 and 245 and 280 and 355
[1]; [3]
  % TGI: 43%
  No. of CR: 0
  No. of PR: 0
  No. of TRD: 0
  No. og nTRD: 0
  Δ mean tumor volume, (mean ± se): 996 ± 179
[1]; Velcade alone 0.5 mg/kg iv biwk
  effect on tumor growth, in words: moderate
[1]; Day 48, group Mean, n 10
  volume: 382.6
[1]; Day 48, individual animals
  volume: 180 and 423 and 682 and 441 and 282 and 431 and 252 and 281 and 363 and 490
[1]; Day 55, group Mean, n 10
  volume: 633.5
[1]; Day 55, individual animals
  volume: 164 and 924 and 1082 and 644 and 403 and 809 and 562 and 481 and 371 and 894
[1]; Day 62, group Mean, n 10
  volume: 1125.2
[1]; Day 62, individual animals
  volume: 174 and 1747 and 1988 and 1094 and 726 and 1451 and 1084 and 924 and 520 and 1544
[1]; group Mean, n 10
  Δ volume: 995.9
[1]; individual animals
  Δ volume: 74.3 and 1638.7 and 1870.6 and 974.8 and 601.2 and 1322.3 and 950.8 and 782.5 and 366.6 and 1377.6
[2]; Day 48, group mean
  Δ volume: 606.6
[2]; Day 48, individual mice
  volume: 1060 and 549
  Δ volume: 537.5
[2]; Day 51, individual mice
  volume: 619 and 578
[2]; group Mean, n 10
  Day 45 volume: 575.1
[2]; individual mouse
  Day 20 volume: 119
  Day 45 volume: 621 and 539
[2]; individual mouse, vs Day 20
  Day 27 Δ volume: 106.5
  Day 34 Δ volume: 121.9 and 124.7
  Day 45 Δ volume: 544.2 and 592.6 and 582.0
